Laboratory results as given in patent US9452117B2 (priority 2011, dated 2016).

Assays:
[1] = system: human skin cells; experiment: Collagen production in human skin cells (Pricro-Sirius Red Method); details: concentrations between 0.0 μM to 5.0 μM, vs control, FIG. 12
[2] = system: Normal mice; experiment: Fatigue resistance: voluntary wheel running after forced treadmill run; details: normal mice 3-4 months old, 2 mg/100 μl/mouse after 1 hour treadmill, 4 days, FIG. 10
[3] = system: Normal C57BL10 mice; experiment: Blood lactate after vigorous treadmill exercise; details: 40 mg/kg body weight after 1 hour treadmill, vs untreated control, FIG. 11
[4] = system: myogenin and myostatin in biceps and tibialis anterior (TA); experiment: Western blot of myogenin and myostatin in mdx mice muscles; details: male mdx mice, oral 80 mg/kg body weight for 90 days, not on weekends, vs control
[5] = system: mdx mice; experiment: H&E staining of biceps and tibialis anterior muscles of mdx mice; details: male mdx mice, gavage 40 mg/kg body weight daily for 3 months, vs control
[6] = system: myogenin in back, TA, quadriceps, and diaphragm; experiment: Skeletal muscle myogenesis in normal mice (myogenin Western blot); details: male C57Black6 normal mice, gavage 40 mg/kg body weight daily for 2 days, 24 hours after second treatment, vs corn oil control
[7] = system: Human skeletal muscle cells; experiment: Calcification (calcium-45 accumulation) in human skeletal muscle cells; format: cell-based; details: 10 uM, 48 hours, DMEM serum free medium, FIG. 7
[8] = system: Myf-5, myogenin, follistatin proteins in back and quadriceps muscles; experiment: Western blot of Myf-5, myogenin, follistatin in muscles of treated mice; details: 5-month old mice, oral 80 mg/kg body weight, 24 hours after administration, vs control
[9] = system: Large^myd mice; experiment: Forelimb grip strength, Large^myd mice; details: 40 mg/kg body weight daily for 3 months, not on weekends, Mean±SEM, control 0.182 ± 0.014
[10] = system: Large^myd mice; experiment: Life span in Large^myd mice; details: Large^myd mice from age 16 weeks, oral 80 mg/kg body weight 3 times a week
[11] = system: human skin cells; experiment: Calcification (calcium-45 accumulation) in human skin cells; format: cell-based; details: concentrations between 0.0 μM to 5.0 μM, vs control, FIG. 13
[12] = system: Large^myd mice; experiment: Treadmill running exhaustion test, Large^myd mice; details: 40 mg/kg body weight daily for 3 months, not on weekends, Mean±SEM

## CCCC(CCC)CO[N+](=O)[O-] [Compound D2, 2-propylpentyl nitrate]
[1]
  collagen level production: significant increases

## CCCC(C)(CO[N+](=O)[O-])CO[N+](=O)[O-]
[2]
  fatigue resistance (voluntary running on wheel after forced treadmill run): helps animals recover from fatigue or tiredness after exercise
[3]
  blood lactate content: reduced
[4]
  myogenin expression in TA and biceps (Western blot): increased
  myostatin levels (Western blot): decreased
[5]
  tissue inflammation and degradation (H&E staining of biceps and tibialis anterior): significant reduction
[6]
  myogenin expression in back, TA, quadriceps, and diaphragm (Western blot): increased
[1]
  collagen level production: significant increases
[7]
  calcification (calcium-45 accumulation): reduce calcification
[8]
  expression of Myf-5 (Western blot): increase
  expression of follistatin (Western blot): increase
  expression of myogenin (Western blot): increase
[9]
  Grip strength: 0.233 ± 0.024 LBF
[10]; control group 37 weeks
  average life span: 45 weeks
[10]; control range 19-50
  life span range: 30-50 weeks
[11]
  calcification (calcium-45 accumulation): significant reduction
[12]; control 32.4 ± 10.2
  Running time: 65.7 ± 13.9 min
[12]; control 420.1 ± 170.7
  Running distance: 979.2 ± 256.8 meter
